Measured values from BindingDB's records for 28789912 (Punjabi University, 2017).

Protein sequences, listed by entry. Tags and fused reporters are not part of them. Lines headed by an entry give the natural chain unless they say otherwise; changes in a name come on top.
UniProt Q9H244: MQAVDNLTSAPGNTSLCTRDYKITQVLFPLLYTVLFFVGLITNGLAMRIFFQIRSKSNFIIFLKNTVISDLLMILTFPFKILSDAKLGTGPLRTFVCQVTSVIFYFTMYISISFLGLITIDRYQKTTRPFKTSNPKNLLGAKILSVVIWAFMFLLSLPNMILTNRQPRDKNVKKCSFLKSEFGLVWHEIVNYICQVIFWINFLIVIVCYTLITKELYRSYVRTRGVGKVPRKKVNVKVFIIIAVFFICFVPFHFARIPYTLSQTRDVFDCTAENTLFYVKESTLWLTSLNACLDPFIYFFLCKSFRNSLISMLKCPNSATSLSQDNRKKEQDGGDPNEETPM

Biological target: P2Y purinoceptor 12 (Homo sapiens, UniProt Q9H244)
Experiment: ChEBML_1694650

In the case of `O=[N+]([O-])c1cccc2[nH]nnc12`, the IC50 is reported as 2060 µM.
